Assay outcomes deposited in PubChem by National Center for Advancing Translational Sciences (NCATS).
Rows were chosen to be rich in hits. Some 16% of all compounds tested hit in one or more screens of this group.
DT40 TDP1 no CPT – qHTS for Inhibitors of human tyrosyl-DNA phosphodiesterase 1 (TDP1): qHTS in cells in absence of CPT; DT40 Tdp1-/- hTDP1 cells, no CPT, ATP luminescence, 48 h; Potency, µM (doses to about 46.2 µM), without a hit: at the highest dose activity change, negative = growth inhibition, actives largely listed as inhibitors; actives 15% (n = 420,000); further: potency means the concentration at half of the fitted maximal effect; on the % scale 0 is the no-effect control and ±100 the full control effect; nearly all actives have a fitted effect of over 55% in size
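Growth of hTDP1-complemented DT40 Tdp1-knockout cells is measured by ATP luminescence after at least 48 hr compound exposure at 37 °C, with DMSO substituting for the 20 nM CPT used in the parallel screen.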
uPA generation – cell surface uPA generation inhibition | cell surface uPA generation assay, qHTS | Potency, µM (highest dose often 38.3 µM), for the others: top-dose activity change, negative = inhibition, usual class: inhibitors | actives 0.31% (n = 330,000) | AID 540303; active means well fitted inhibition curve with a large enough effect; inconclusive means small, poorly fitted or top-dose-only effect; inactive means no such curve, though single readings can be large or run the other way; tested in mouse RAW 264.7 cells; further: potency means the concentration at half of the fitted maximal effect; on the % scale 0 is the no-effect control and ±100 the full control effect; nearly all actives have a fitted effect of over 55% in size
TDP1 cell CPT – growth inhibition of DT40 Tdp1-/-;hTDP1 cells with camptothecin (screen for TDP1 inhibitors); chicken DT40 Tdp1-/-;hTDP1 cells + 20 nM CPT, ATP luminescence, 48 h; Potency, µM (doses to about 46.2 µM), for inactives: top-dose activity change, negative = growth inhibition, actives largely listed as inhibitors; actives 12% (n = 420,000); AID 686979; further: potency means the concentration at half of the fitted maximal effect; on the % scale 0 is the no-effect control and ±100 the full control effect; nearly all actives have a fitted effect of over 55% in size
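Chicken DT40 Tdp1-/- cells stably complemented with human TDP1 were seeded at 400 cells/well in medium containing 20 nM camptothecin, exposed to pin-transferred compounds, and grown at 37 °C for at least 48 hr. Viability was read as ATP luminescence.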
TDP1 block – inhibitors of human tyrosyl-DNA phosphodiesterase TDP1; Potency, µM (series often up to 130 µM), inactives show at the highest dose activity change, negative = inhibition, actives largely listed as inhibitors; Q9NUW8; recombinant TDP1, AlphaScreen DNA substrate cleavage; AID 485290; actives 0.28% (n = 350,000); further: potency means the concentration at half of the fitted maximal effect; on the % scale 0 is the no-effect control and ±100 the full control effect; nearly all actives have a fitted effect of over 40% in size
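Recombinant E. coli-expressed Tdp1 (1 nM) preincubated with compound 15 min at RT, then 5'-biotin/3'-phosphotyrosine-FITC DNA substrate (15 nM) added for 5 min. AlphaScreen beads (10 ug/ml) added, 10 min RT; tyrosine-FITC cleavage read as signal loss.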
miR-21 reporter – raises the signal of a miR-21 reporter | HeLa miR-21 FLuc reporter, luciferase, 48 h | Potency, µM (highest dose often 38.3 µM), for inactives: at the highest dose reporter change, positive = more light | 340,000 tested, under 10 active | AID 2288; active = well fitted rising curve with a large enough effect; inconclusive = small, poorly fitted or top-dose-only effect; inactive = no such curve, though single readings can be large or run the other way;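 also: % of control where 0% means no effect; miR-21 action dims this reporter so a rising signal means less miR-21 action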
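Luminescence from a firefly luciferase reporter carrying a miR-21 binding site downstream, stably expressed under a CMV promoter in HeLa cells that make miR-21 endogenously, reports miRNA modulation after 48 h compound exposure up to approximately 40uM final.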
Starred values were filed as active, the others as inactive; u = inconclusive; x = no result given; [ ] = another dose, or the depositor's remark. Unless noted, the call rests on the fitted dose curve; in most records, active means well fitted curve in the direction sought with a large enough effect; inconclusive means small, poorly fitted or top-dose-only effect, or another doubt; inactive means no such curve, though single readings can be large; an effect the other way counts as inactive or inconclusive.

| compound | TDP1 cell CPT | TDP1 block | miR-21 reporter | uPA generation | DT40 TDP1 no CPT |
| --- | --- | --- | --- | --- | --- |
| Nc1ccc(C(=O)Nc2ccc(Nc3ccncc3)cc2)cc1 | u | -1.4% | -6.2% | 7.7% | 29.1µM* |
| O=C(Nc1ccncc1)c1ccc(Cl)cc1 | u | x | -6.0% | -2.8% | -25.5% |
| O=C(Nc1ccncc1)c1ccc(Br)cc1 | u | x | -0.3% | -15.0% | 5.17µM* |
| Nc1ccc(NC(=O)c2ccc(C(=O)Nc3ccc(N)cc3)cc2)cc1 | 0.3% | 79.4µM* | -2.1% | 1.8% | -3.4% |
| O=C(Nc1ccc(Br)cc1)c1cccc(C(=O)Nc2ccc(Br)cc2)c1 | u | 2.2%[12.3 µM] | -21.6% | x | 20.6µM* |
| Nc1ccc(C(=O)Nc2ccc(Nc3ccncc3)cc2)c([N+](=O)[O-])c1 | -21.1% | x | x | x | -8.5% |
| C=CCOc1ccc(C(=O)CC)cc1OC | 5.1% | 5.8% | -17.0% | -6.0% | 9.7% |
| O=C1C=C(c2ccccc2)C[C@H](c2cccs2)[C@H]1n1cnc([N+](=O)[O-])c1 | u | 5.0% | -9.5% | 2.5% | u |

Fetched by structure from the entries so far (2):
| compound | TDP1 cell CPT | TDP1 block | miR-21 reporter | uPA generation | DT40 TDP1 no CPT |
| --- | --- | --- | --- | --- | --- |
| O=C(Nc1ccc(Br)cc1)c1cccc(C(=O)Nc2ccc(Br)cc2)c1 | u | 2.2%[12.3 µM] | -21.6% | x | 20.6µM* |
| O=C(Nc1ccncc1)c1ccc(Br)cc1 | u | x | -0.3% | -15.0% | 5.17µM* |

Arranged by SMILES length (low to high): part of the list above.
| compound | TDP1 cell CPT | TDP1 block | miR-21 reporter | uPA generation | DT40 TDP1 no CPT |
| --- | --- | --- | --- | --- | --- |
| C=CCOc1ccc(C(=O)CC)cc1OC | 5.1% | 5.8% | -17.0% | -6.0% | 9.7% |
| O=C(Nc1ccncc1)c1ccc(Br)cc1 | u | x | -0.3% | -15.0% | 5.17µM* |
| Nc1ccc(C(=O)Nc2ccc(Nc3ccncc3)cc2)c([N+](=O)[O-])c1 | -21.1% | x | x | x | -8.5% |

Other structures:
| compound | TDP1 cell CPT | TDP1 block | miR-21 reporter | uPA generation | DT40 TDP1 no CPT |
| --- | --- | --- | --- | --- | --- |
| CN(C)CCCN(C(=O)c1ccc2c(c1)CCCC2)c1nc2ccc(F)cc2s1 | 20.6µM* | 7.0% | -19.2% | 4.5% | 16.4µM* |
| CCN(CC)CCN(C(=O)c1ccc2c(c1)CCCC2)c1nc2ccc(F)cc2s1 | u | 5.8% | -15.9% | -0.3% | u |
| CCN(CC)CCN(C(=O)c1ccc2c(c1)CCCC2)c1nc2ccc(OC)cc2s1 | 18.4µM* | 11.5% | -4.0% | 6.8% | u |
| CCN(CC)CCN(C(=O)c1ccc2c(c1)CCCC2)c1nc2ccc(C)cc2s1 | u | 10.5% | -16.2% | 12.4% | 23.1µM* |
| COc1cc(CCC(=O)OCC(=O)Nc2ccccc2F)cc(OC)c1OC | -9.3% | 13.6% | 0.4% | -1.8% | -15.9% |
| CN(C(=O)COC(=O)COc1ccccc1Cc1ccccc1)c1ccccc1 | 7.9% | -9.5% | x | -1.8% | -12.1% |
| O/N=C1\CCC\C1=C/c1ccco1 | 6.6% | -5.8% | -10.1% | 5.0% | -1.3% |
| O=C1ON=C(c2ccccc2)/C1=C\c1ccco1 | -14.2% | -12.8% | 4.1% | 17.2% | -4.8% |
| O=C1C(=Cc2ccco2)CCC1=Cc1ccco1 | 23.1µM* | x | x | -4.4% | 16.4µM* |
| O=C1C(=Cc2ccco2)CCCC1=Cc1ccco1 | 23.1µM* | x | x | -13.6% | u |
| COc1ccc(CN2CCN(C(=O)CCC(=O)Nc3nnc(C4CCCCC4)s3)CC2)cc1F | 16.4µM* | 3.3% | 6.4% | -6.2% | u |
| COc1ccc(CN2CCN(C(=O)CCC(=O)Nc3nnc(CC(C)C)s3)CC2)cc1F | 3.26µM* | -1.3% | 10.5% | 8.4% | 4.61µM* |
| CC(C)Cc1nnc(NC(=O)CCC(=O)N2CCN(c3ccc([N+](=O)[O-])cc3)CC2)s1 | 14.6µM* | 3.2% | u | -6.6% | 18.4µM* |
| CC(C)Cc1nnc(NC(=O)CCC(=O)N2CCN(c3ccccc3)CC2)s1 | -24.9% | 1.1% | -1.3% | -49.4% | -3.2% |
| COc1ccc(S(=O)(=O)NN(C)c2nc(C(F)(F)F)nc3ccccc23)cc1 | u | 0.5% | -0.7% | -11.3% | u |
| O=C(/C=C/c1cccc(Br)c1)c1ccc2c(c1)OCO2 | u | x | -0.3% | 0.2% | u |
| O=C(CNC(=O)c1ccc2c(c1)OCO2)N/N=C(Br)/C=C/c1ccccc1 | 2.59µM* | -2.3% | 14.5% | -9.5% | 7.31µM* |
| O=C(/C=C/c1ccccc1)c1ccc2c(c1)OCO2 | 18.4µM* | x | -24.2% | -14.7% | u |
| O=C(CNC(=O)c1ccc2c(c1)OCO2)N/N=C/c1cccc([N+](=O)[O-])c1 | -6.3% | 3.1% | -2.3% | -5.1% | -28.9% |
| O=C(/C=C/c1ccc2c(c1)OCO2)c1ccc(F)cc1 | u | -1.3% | -31.8% | -25.5% | u |
| CN(C)c1ccc(/C=C/C(=O)c2ccc3c(c2)OCO3)cc1 | 23.1µM* | -1.8% | x | -3.7% | 16.4µM* |
| O=C(/C=C/c1ccncc1)c1ccc2c(c1)OCCO2 | u | 0.0% | u | -8.5% | 14.6µM* |
| CC(=O)N(C[C@@H](O)CO)c1c(I)c(C(=O)NC[C@@H](O)CO)c(I)c(C(=O)NC[C@@H](O)CO)c1I | x | 3.9%[56.1 µM] | x | x | x |
| CCN1CCC[C@@H]1CNC(=O)c1cc(S(N)(=O)=O)ccc1OC | x | -4.8% | x | x | x |
| CC(=O)c1sc2c(c1OC(=O)c1ccccc1)c(=O)n(-c1ccccc1)c(=S)n2-c1ccccc1 | -29.5% | x | x | 5.0% | u |
| C/C(CCc1ccc2c(c1)OCO2)=N\N=C1\NC(=O)CC(C(=O)Nc2ccccc2)S1 (stereo unspecified) | 1.0% | 2.0% | -4.1% | x | -0.1% |
| COc1cccc(/C=C/C(=O)c2ccc3c(c2)OCO3)c1OC | u | 0.9% | x | -13.2% | 18.4µM* |
| CN(C)c1ccc(C(=O)C=Cc2ccc([N+](=O)[O-])cc2)cc1 | -25.3% | x | x | x | u |
| O=C(/C=C/c1ccccc1Br)c1ccc2c(c1)OCO2 | 20.6µM* | 0.5% | -18.3% | -4.8% | 23.1µM* |
| COc1cc(/C=C/C(=O)c2ccc3c(c2)OCCO3)cc(Br)c1OCC(=O)N(C)C | 8.2µM* | 8.3% | u | -0.2% | 7.31µM* |
| CN(C)c1ccc(/C=C/C(=O)c2ccc(O)cc2)cc1 | u | x | x | -9.6% | 10.3µM* |
| CN(C)c1ccc(/C=C/C(=O)c2ccc3c(c2)OCCO3)cc1[N+](=O)[O-] | -15.4% | 11.3% | -22.9% | 11.8% | -5.6% |
| COc1ccc(CN2CC(=O)N(c3ccccc3C)C2=S)cc1OC | -35.5% | 6.1% | -5.7% | -5.2% | u |
| CCCN(CCC)C(=O)Nc1ccc(F)cc1F | -15.9% | 6.0% | 1.0% | -3.3% | 7.3% |
| OCC[C@@H]1C[C@H](O)[C@@H](O)[C@]2(Cc3ccccc3CO2)O1 | -14.2% | x | 1.6% | -7.9% | -10.7% |
| COc1ccc2c(c1)/C(=N/N1C(=O)c3ccccc3C1=O)C(=O)N2 | x | 2.6% | 0.9% | x | x |
| Cc1ccc2c(c1Br)/C(=N/N1C(=O)c3ccccc3C1=O)C(=O)N2 | 20.6µM* | 1.9% | -7.9% | 1.0% | 23.1µM* |
| CC(C)c1csc(CN2CCC(C(=O)Nc3cccc(-c4ccco4)c3)CC2)n1 | u | x | x | x | 18.4µM* |
| CC(C)c1csc(CN2CCC(n3nccc3NC(=O)Cc3ccccc3)CC2)n1 | u | 3.2%[56.1 µM] | 14.1% | 1.8% | 25.9µM* |
| COc1cc(-c2noc(C)c2C(=O)NCc2ccc(C)o2)cc(OC)c1OC | u | 2.8% | x | -16.3% | u |
| COc1cc(-c2noc(C)c2C#Cc2ccc(N)cc2)cc(OC)c1OC | 0.82µM* | x | 2.4% | u | 0.517µM* |
| COc1cc(-c2noc(C)c2C#Cc2ccccn2)cc(OC)c1OC | 0.651µM* | x | 14.1% | 0.355µM* | 1.03µM* |
| COc1cc(C(=O)O/N=C(\N)c2ccccn2)cc(OC)c1OC | u | x | -38.8% | u | u |
| CNC(C)C#Cc1c(-c2cc(OC)c(OC)c(OC)c2)noc1C (stereo unspecified) | u | x | 8.6% | u | 15.8µM* |
